The list shows a part of the results, in another mix than the full data. The source made the active and inactive calls.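 How the source made its calls: active means inhibition above the mean inhibition of all tested compounds plus 3 SD, set separately per screening campaign (cut at about 2.9% in these data); inactive means the rest.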
These molecules were tested against Eukaryotic translation initiation factor 2-alpha kinase 3 (Homo sapiens) (UniProt Q9NZJ5) (assay: block of dimerizer-induced PERK translation repression, primary screen, PERK inhibitor project, CHO PERK-DD cells, SEAP luminescence, HTS (AID 1416;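 further: PERK kinase domain activated by AP20187 dimerizer at 100 nM; 0% = DMSO with dimerizer and 100% = rapamycin at 8.4 µM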)). Settings: CHO PERK-DD fusion, SEAP luminescence translation reporter; at 5.6 µM; active compounds read high.

Sequences of proteins named here, by UniProt entry; tags and fusion partners are left off.
UniProt Q9NZJ5, whole entry: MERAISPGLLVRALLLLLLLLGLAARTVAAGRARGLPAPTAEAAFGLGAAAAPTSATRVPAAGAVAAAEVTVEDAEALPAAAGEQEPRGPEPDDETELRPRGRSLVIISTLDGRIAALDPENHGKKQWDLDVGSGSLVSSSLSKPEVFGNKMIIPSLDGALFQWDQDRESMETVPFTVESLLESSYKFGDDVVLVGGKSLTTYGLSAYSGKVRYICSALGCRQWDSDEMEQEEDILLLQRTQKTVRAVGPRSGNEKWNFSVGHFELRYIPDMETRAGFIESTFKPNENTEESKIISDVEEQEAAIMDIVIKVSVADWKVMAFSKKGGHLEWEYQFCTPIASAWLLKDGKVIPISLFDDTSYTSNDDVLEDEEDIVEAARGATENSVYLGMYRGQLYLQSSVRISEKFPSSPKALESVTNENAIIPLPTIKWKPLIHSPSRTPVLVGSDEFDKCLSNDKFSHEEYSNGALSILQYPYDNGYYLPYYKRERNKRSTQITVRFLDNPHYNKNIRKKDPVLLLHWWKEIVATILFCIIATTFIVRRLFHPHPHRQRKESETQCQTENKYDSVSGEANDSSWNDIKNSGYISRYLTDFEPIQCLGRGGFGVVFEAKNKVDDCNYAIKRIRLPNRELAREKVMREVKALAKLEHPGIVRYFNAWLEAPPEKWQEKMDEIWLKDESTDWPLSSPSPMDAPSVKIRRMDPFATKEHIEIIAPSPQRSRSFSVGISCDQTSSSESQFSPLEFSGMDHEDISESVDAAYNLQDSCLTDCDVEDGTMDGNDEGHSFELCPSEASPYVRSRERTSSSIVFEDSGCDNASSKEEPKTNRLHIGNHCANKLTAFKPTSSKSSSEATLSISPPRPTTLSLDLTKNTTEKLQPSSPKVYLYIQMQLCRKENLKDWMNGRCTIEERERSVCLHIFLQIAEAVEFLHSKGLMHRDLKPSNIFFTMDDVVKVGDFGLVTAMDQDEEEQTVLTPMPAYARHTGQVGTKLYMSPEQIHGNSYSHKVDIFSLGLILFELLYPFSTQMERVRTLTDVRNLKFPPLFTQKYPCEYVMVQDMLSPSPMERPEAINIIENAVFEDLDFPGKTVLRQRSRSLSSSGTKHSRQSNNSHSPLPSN

Row | SMILES | inhibition
1 | COc1cc(OC)cc(C(=O)NCC2(N3CCOCC3)CCCCC2)c1 | inactive: -0.24%
2 | CCC(CO)(C(=O)OC1CN2CCC1CC2)c1ccccc1 (centres undefined) | inactive: -0.62%
3 | CCCOc1ccc(C)cc1CN(CCCl)CCCl | inactive: 1.79%
4 | CCOc1ncccc1C(=O)NCC1(N2CCOCC2)CCCCC1 | inactive: -1.31%
5 | CC(C)(C)OC(=O)N1CCC(Nc2ccccc2)CC1 | inactive: -0.17%
6 | CCN1CCC(Nc2cccc(F)c2)CC1 | inactive: 0.13%
7 | CN(C)c1ccc(C(=O)NCC2(N3CCCCC3)CCCCC2)cc1 | inactive: 0.21%
8 | c1ccc(CN2CCC(Nc3ccccc3)CC2)cc1 | inactive: 0.72%
9 | N#Cc1ccc(C(=O)NCC2(N3CCCCC3)CCCCC2)cc1 | inactive: 0.35%
10 | N/C(=N\O)c1c(N)no[n+]1[O-] | inactive: 0.79%
11 | O=C(OC1CN2CCC1CC2)C1c2ccccc2C=Cc2ccccc21 (centres undefined) | inactive: -1.94%
12 | COc1ccc(C(=O)NCC2(N3CCOCC3)CCCCC2)cc1OC | inactive: 0.55%
13 | CN1CCC(Nc2cccc(F)c2)CC1 | inactive: 2.02%
14 | CC(C)c1ccc(NC2CCN(C(=O)OC(C)(C)C)CC2)cc1 | inactive: -0.22%
15 | COc1ccc(CN(CCCl)CCCl)cc1Cl | inactive: 0.54%
16 | CN(C)c1cccc(C(=O)NCC2(N3CCCCC3)CCCCC2)c1 | inactive: 0%
17 | O=C(NCC1(N2CCOCC2)CCCCC1)c1cc(=O)[nH]c2ccccc12 | inactive: 0.52%
18 | CN1CCN(CCOC(=O)C(O)(c2ccccc2)c2ccccc2)CC1 | inactive: 0.68%
19 | COc1ccc(NC2CCN(C(=O)OC(C)(C)C)CC2)cc1 | inactive: -0.07%
20 | N#CC1(Nc2ccccc2)CCN(CCc2ccccc2)CC1 | inactive: -0.64%
21 | O=C(NCC1(N2CCCCC2)CCCCC1)c1cccc([N+](=O)[O-])c1 | inactive: -0.67%
22 | Cc1ccc(OCC(C)C)c(CN(CCCl)CCCl)c1 | inactive: 0.77%
23 | CCOc1ccc(C)cc1CN(CCCl)CCCl | inactive: 1.6%
24 | COc1ccc(NC2CCN(CCc3ccccc3)CC2)c(OC)c1 | inactive: -0.42%
25 | O=C(NCC1(N2CCOCC2)CCCCC1)c1cc2ccccc2o1 | inactive: -1.19%
26 | O=C(OC1CN2CCC1CC2)C1c2ccccc2Oc2ccccc21 (centres undefined) | inactive: -0.55%
27 | N#CC1(Nc2ccccc2)CCN(Cc2ccccc2)CC1 | inactive: 1.82%
28 | CCOC(=O)N1CCC(Nc2ccc(OC)cc2)CC1 | inactive: 1.18%
29 | COc1ccc(C(=O)NCC2(N3CCCCC3)CCCCC2)c(OC)c1OC | inactive: 1.29%

— PubChem BioAssay AID1416 (The Scripps Research Institute Molecular Screening Center, 2008)
